# Antibody variant affinities, Ab-14 heavy chain, assay B

All variants were tested on one target, the spike HR2 peptide PDVDLGDISGINAS (SARS-CoV-2).

Parent: Ab-14, a human scFv built as VH, a (GGGGS)3 linker, VL. Only the CDRs of the heavy chain vary.
VH: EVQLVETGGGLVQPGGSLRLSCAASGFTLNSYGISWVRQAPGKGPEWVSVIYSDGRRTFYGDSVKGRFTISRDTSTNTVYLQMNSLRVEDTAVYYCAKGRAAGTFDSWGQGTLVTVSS
VL: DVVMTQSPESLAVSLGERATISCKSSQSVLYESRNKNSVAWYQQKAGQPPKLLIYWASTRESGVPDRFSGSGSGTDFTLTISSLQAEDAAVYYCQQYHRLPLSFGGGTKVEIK

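The parent was found by panning a naive human phage display library on the peptide. This is the validation round: designs drawn from the data on random variants, tested in the same kind of assay. Their group label is 14H_GP_HC (GP: Gaussian process model; HC: hill climbing; a sequence that several methods proposed may carry one label only). The scFvs were displayed on barcoded MATa yeast, the peptide on MATalpha yeast. After mating in shaken culture at 30 °C for 16 h, diploids were selected and their barcode pairs sequenced. A regression on co-assayed BCL2-family reference pairs converts the normalised counts of each replicate to an apparent Kd. Mating was done six times.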

Changes read parent residue, position, new residue, counted from the first residue of the VH shown.
Scale: log10 of Kd in nM, estimated from mating counts; low values are strong binders.
The mean shown is taken over the replicates in which the pair was detected.
"nd" means that the variant was in the library but no mating with the target was seen in that replicate; the authors take this as a sign of poor binding, and no number exists.
As a blank, each scFv also met three strains without target: over all heavy chain designs, 1% of these pairings were detected, typically at 2.08 and seldom below 0.84. Also given: how often the same scFv was detected with the empty control strains, with their mean in brackets.
The authors averaged sequences with at least three values out of six and counted those with two or fewer as poor binders.
The range of this assay differs from that of the first round, and the authors advise against merging the two.

changes	log10 Kd (nM) by replicate	mean, log10 nM	signal with controls
S31E+G61T+R100K+S107L	0.67 1.29 1.82 0.38 0.68 0.90	0.96	1 of 18 (1.45)
T28D+A101E+T104V+D106N	nd nd nd nd nd 3.08	3.08	0 of 18
S31E+G61T+A101H+D106E	nd 1.71 1.29 1.62 2.25 2.25	1.82	0 of 18
S31E+G61S+R100E+S107N	0.50 0.63 0.48 0.38 0.48 0.59	0.51	0 of 18
S31E+G61Q+A101F+S107D	1.25 0.85 0.46 0.24 1.05 1.41	0.88	0 of 18
T28S+S31E+G61T+S63R+R100E	0.50 0.88 0.73 0.26 0.42 1.26	0.68	0 of 18
G26A+N30E+S53A	0.40 0.19 0.13 1.46 0.49 2.11	0.80	1 of 18 (1.51)
T28S+S31D+S107H	0.44 2.02 1.27 1.12 1.87 3.56	1.72	0 of 18
G26Q+G61D+R100Q+A101L	nd nd 0.03 nd nd nd	0.03	0 of 18
G26K+G61K+R100Q+A101T	nd nd 1.60 2.08 nd nd	1.84	0 of 18
S31E+D106A+S107V	0.83 1.27 nd 1.43 2.50 2.28	1.66	0 of 18
N30D+R100S+S107R	1.15 0.81 nd 1.45 1.36 nd	1.19	0 of 18
S31E+G61T+A101V+S107V	-0.02 -0.32 -0.11 -0.21 -0.50 -0.16	-0.22	0 of 18
T28S+S31E+F59M+G61S	0.23 0.07 0.27 0.48 -0.08 0.29	0.21	1 of 18 (2.44)
T28E+S31Q+G61S+A101Q	0.33 0.00 0.30 0.35 -0.05 0.39	0.22	0 of 18
S31E+F59Q+D106V	nd nd nd nd 2.03 nd	2.03	0 of 18
T28P+G61A+R100Q+A101L	1.05 nd 0.50 0.26 1.11 1.13	0.81	0 of 18
T28H+S31D+G61M+A101Q	1.05 1.18 1.35 2.21 1.94 2.24	1.66	0 of 18
T28D+G61M+R100Q+A101L	0.47 0.32 0.22 0.23 0.80 0.22	0.38	0 of 18
S31D+S53A+S107I	nd 1.04 0.46 0.21 0.31 1.29	0.66	0 of 18
N30E+S107V	1.44 1.71 nd nd 1.76 1.17	1.52	0 of 18
T28S+G61S+G103V	nd nd nd nd nd nd	nd	0 of 18
T28R+S31D+G61I+A101L	nd nd nd 0.85 0.11 1.70	0.89	0 of 18
T28Q+G61S+R100H+S107D	nd nd nd 0.63 0.98 nd	0.80	0 of 18
G26E+G61S+R100K+A102G	nd nd nd 1.61 nd nd	1.61	0 of 18
R56E+G61A+A101T	-0.47 0.58 1.34 -0.10 0.17 -0.30	0.20	0 of 18
T28D+T104W+D106T	nd nd nd nd nd nd	nd	0 of 18
T28W+S31D+R100T	nd 1.51 1.59 2.63 1.12 1.81	1.73	0 of 18
T28Q+G61K+R100H	nd 1.00 1.08 0.99 nd 2.13	1.30	0 of 18
S31E+D106W+S107V	nd nd nd nd nd nd	nd	0 of 18
S31M+G61S+R100Q+A101D	1.41 nd nd nd nd nd	1.41	1 of 18 (1.13)
T28W+S31E+G61H+G103V+S107T	nd nd nd nd nd nd	nd	0 of 18
G61S+A101E+D106T	1.71 nd 2.05 nd nd nd	1.88	1 of 18 (1.46)
S31E+R56W+G61S+D106T	1.54 2.05 1.46 1.40 1.88 1.65	1.66	0 of 18
S31E+G61K+A101M	0.27 -0.06 -0.17 -0.27 0.08 0.26	0.02	0 of 18

Top 3 of the variants detected in all replicates, tightest first:

changes	log10 Kd (nM) by replicate	mean, log10 nM	signal with controls
S31E+G61T+A101V+S107V	-0.02 -0.32 -0.11 -0.21 -0.50 -0.16	-0.22	0 of 18
S31E+G61K+A101M	0.27 -0.06 -0.17 -0.27 0.08 0.26	0.02	0 of 18
R56E+G61A+A101T	-0.47 0.58 1.34 -0.10 0.17 -0.30	0.20	0 of 18

From the AlphaSeq antibody data of Li et al. 2023 (doi:10.1038/s41467-023-39022-2), copy in the FLAb collection.